# From patent publication US7098372B1, “Pharmaceutical compositions and methods of using secreted frizzled related protein” (Wyeth, priority 1999, dated 2006)
# B1: bone morphogenetic protein (BMP)-2: bone morphogenetic protein (BMP)-2 (protein, UniProt P12643 283-396, looked up)
# Bone morphogenetic protein 2: QAKHKQRKRLKSSCKRHPLYVDFSDVGWNDWIVAPPGYHAFYCHGECPFPLADHLNSTNHAIVQTLVNSVNSKIPKACCVPTELSAISMLYLDENEKVVLKNYQDMVVEGCGCR
# Tested on: hOB SFRP mRNA
# Experiment: hOB SFRP mRNA levels after treatment with various agents (method not given)
# Assay type: cell-based, human
# Details: various hOB cell lines
# Text: In addition to PGE2, treatment of either the hOB-03-C5 cells or the hOB-03-CE6 cells with interleukin (IL)-1β, 9-cis-retinoic acid or all-trans-retinoic acid also increases hOB SFRP mRNA levels. On the other hand, as with TGF-β1, treatment of various hOB cell lines with PTH, bone morphogenetic protein (BMP)-2, insulin-like growth factor (IGF)-I, 17β-estradiol (17β-E2), vitamin D3 (VD3), dexamethasone (Dex), or fetal bovine serum (FBS) suppresses hOB SFRP message expression. Overall, there is a good (albeit imperfect) correlation between the abilities of these various agents to either increase or decrease hOB SFRP expression, and their ability to either enhance or suppress osteoblast/osteocyte apoptosis (see for example Manolagas 2000 Endocrine Reviews 21: 115–137).
molecule,measurement,value
B1,effect on hOB SFRP message expression,suppresses
